pIC50: −log10 of the molar value.
Molecular target: T1, P2X purinoceptor 3 (Rattus norvegicus, UniProt P49654)
T1 sequence (P49654 whole entry): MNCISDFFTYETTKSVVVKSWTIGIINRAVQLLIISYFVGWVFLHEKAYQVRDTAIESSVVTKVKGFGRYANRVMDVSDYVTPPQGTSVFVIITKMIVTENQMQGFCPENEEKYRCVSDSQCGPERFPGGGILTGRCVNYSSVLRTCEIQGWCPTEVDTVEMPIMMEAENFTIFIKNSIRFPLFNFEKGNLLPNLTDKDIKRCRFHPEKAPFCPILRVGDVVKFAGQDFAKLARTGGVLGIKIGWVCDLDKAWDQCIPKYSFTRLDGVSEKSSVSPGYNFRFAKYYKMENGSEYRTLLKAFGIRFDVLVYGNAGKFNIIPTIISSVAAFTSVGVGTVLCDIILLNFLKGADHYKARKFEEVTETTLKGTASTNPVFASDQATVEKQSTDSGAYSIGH
Test: Inhibition of inward ion current elicited by ATP was determined at recombinant P2X3 receptor expressed in Xenopus oocytes
Assay type: functional, cell-based, Oocyte

**Q.** With `Cc1nc(/N=N/c2cc(S(=O)(=O)O)ccc2S(=O)(=O)O)c(COP(=O)(O)O)c(C=O)c1O` [ISOPPADS] as the compound, how does the pIC50 read?
**A.** 7.13

— ChEMBL document CHEMBL1134335, “Structure-activity relationships of pyridoxal phosphate derivatives as potent and selective antagonists of P2X1 receptors” (J Med Chem, 2001)
